Sequences of proteins named here, by UniProt entry; tags and fusion partners are left off.
UniProt P29475, whole entry: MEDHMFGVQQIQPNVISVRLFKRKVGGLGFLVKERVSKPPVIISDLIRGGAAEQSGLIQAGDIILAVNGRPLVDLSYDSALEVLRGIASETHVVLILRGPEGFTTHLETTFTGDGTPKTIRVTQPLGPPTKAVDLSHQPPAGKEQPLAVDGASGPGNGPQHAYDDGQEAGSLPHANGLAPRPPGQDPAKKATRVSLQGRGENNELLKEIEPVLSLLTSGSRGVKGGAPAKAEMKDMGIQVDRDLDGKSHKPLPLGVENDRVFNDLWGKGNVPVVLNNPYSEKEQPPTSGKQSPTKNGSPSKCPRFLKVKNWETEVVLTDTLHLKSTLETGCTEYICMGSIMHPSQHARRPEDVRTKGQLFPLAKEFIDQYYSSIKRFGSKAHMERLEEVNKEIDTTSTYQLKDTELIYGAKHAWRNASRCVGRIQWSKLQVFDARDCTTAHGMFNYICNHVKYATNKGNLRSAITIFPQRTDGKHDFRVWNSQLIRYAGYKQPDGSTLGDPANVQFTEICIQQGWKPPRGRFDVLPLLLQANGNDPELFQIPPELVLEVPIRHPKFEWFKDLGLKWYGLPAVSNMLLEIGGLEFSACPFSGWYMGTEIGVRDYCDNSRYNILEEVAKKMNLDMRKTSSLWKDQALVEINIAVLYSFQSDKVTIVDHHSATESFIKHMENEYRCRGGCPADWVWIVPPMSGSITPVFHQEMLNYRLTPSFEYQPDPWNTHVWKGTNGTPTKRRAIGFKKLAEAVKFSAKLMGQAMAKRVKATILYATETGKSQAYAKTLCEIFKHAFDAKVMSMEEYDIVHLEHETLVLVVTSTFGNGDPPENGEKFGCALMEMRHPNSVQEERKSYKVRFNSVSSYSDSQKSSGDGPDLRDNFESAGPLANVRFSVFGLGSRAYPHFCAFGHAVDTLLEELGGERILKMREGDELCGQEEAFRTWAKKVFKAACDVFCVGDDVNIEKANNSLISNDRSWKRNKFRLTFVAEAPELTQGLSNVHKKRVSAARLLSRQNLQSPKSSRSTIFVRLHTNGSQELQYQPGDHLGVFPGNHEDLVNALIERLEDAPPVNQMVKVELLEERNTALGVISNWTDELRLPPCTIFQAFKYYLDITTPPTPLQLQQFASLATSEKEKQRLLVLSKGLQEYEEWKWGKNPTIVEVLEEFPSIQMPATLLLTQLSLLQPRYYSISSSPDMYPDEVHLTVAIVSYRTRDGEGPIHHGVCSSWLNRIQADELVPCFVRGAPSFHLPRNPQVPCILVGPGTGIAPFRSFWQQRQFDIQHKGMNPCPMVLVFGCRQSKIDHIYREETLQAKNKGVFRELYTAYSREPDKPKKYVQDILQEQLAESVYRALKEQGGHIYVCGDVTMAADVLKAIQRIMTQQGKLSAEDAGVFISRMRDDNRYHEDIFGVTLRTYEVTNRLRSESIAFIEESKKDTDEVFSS

In ChEMBL document CHEMBL1764947, “Symmetric double-headed aminopyridines, a novel strategy for potent and membrane-permeable inhibitors of neuronal nitric oxide synthase” (J Med Chem, 2011):

Tests used:
[1] = Selectivity ratio of Ki for bovine recombinant eNOS to Ki for rat recombinant nNOS
[2] = Selectivity ratio of Ki for murine macrophage recombinant iNOS to Ki for rat recombinant nNOS
[3] = target: Nitric oxide synthase 1 (Homo sapiens, UniProt P29475); assay: Inhibition of nNOS expressed in human 293T cells assessed as nitrite formation after 8 hrs by Griess reaction; type: cell-based

Structure (SMILES) | Ratio Ki [1] | Ratio Ki [2] | IC50 [3] [µM]
Cc1cc(N)nc(CCc2cccc(CCc3cc(C)cc(N)n3)c2)c1 | 28.8 | 13.9 | –
Cc1cc(N)nc(CCc2cncc(CCc3cc(C)cc(N)n3)c2)c1 | – | – | 5
Cc1cc(N)nc(CCc2cccc(CCc3cc(C)nc(N)c3)n2)c1 | 102 | 64 | –
